Data reported in ChEMBL document CHEMBL1132473, “Inhibition and substrate activity of conformationally rigid vigabatrin analogues with gamma-aminobutyric acid aminotransferase” (J Med Chem, 1999).

Chains of the proteins cited; added tags and fusions are not shown. Lines headed by an entry give the natural chain unless they say otherwise; changes in a name come on top.
UniProt P80147: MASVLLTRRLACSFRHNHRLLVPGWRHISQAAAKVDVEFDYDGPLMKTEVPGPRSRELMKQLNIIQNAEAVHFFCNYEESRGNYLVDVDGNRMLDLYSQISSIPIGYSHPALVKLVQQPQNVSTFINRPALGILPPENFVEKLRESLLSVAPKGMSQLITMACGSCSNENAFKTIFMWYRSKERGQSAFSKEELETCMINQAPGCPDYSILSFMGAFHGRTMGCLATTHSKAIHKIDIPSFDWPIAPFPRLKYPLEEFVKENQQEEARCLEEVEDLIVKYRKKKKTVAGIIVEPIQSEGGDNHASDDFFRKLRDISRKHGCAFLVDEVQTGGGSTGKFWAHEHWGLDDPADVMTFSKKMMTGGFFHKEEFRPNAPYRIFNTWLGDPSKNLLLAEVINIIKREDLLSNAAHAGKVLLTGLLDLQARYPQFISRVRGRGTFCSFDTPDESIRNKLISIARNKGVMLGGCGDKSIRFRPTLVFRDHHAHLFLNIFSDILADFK

Target: 4-aminobutyrate aminotransferase, mitochondrial (Sus scrofa) (UniProt P80147)

NCCCC(=O)O
k cat: 0.817 s⁻¹
